This is an account of results in US6610657B1, “Alkyl peptide amides and applications” (Promega Corporation, priority 1996, dated 2003).

The target of the test is PKA of bovine sperm (cAMP-dependent protein kinase A activity in sperm lysate) (bovine). The test can be described thus: cell-based or functional assay.

Consider “PKI (unmodified, non-stearated cAMP-dependent protein kinase inhibitor peptide)”, for which the PKA activity with PKI (about 50 µM) added to the PKA assay was 100%.
